Target: Histamine H3 receptor (Rattus norvegicus, UniProt Q9QYN8)
Assay: Binding affinity for rat histamine H3 receptor on rat cortical cells

Sequences of proteins named here, by UniProt entry; tags and fusion partners are left off. A change or cut given only in a name is not applied to a line headed by its entry.
UniProt Q9QYN8: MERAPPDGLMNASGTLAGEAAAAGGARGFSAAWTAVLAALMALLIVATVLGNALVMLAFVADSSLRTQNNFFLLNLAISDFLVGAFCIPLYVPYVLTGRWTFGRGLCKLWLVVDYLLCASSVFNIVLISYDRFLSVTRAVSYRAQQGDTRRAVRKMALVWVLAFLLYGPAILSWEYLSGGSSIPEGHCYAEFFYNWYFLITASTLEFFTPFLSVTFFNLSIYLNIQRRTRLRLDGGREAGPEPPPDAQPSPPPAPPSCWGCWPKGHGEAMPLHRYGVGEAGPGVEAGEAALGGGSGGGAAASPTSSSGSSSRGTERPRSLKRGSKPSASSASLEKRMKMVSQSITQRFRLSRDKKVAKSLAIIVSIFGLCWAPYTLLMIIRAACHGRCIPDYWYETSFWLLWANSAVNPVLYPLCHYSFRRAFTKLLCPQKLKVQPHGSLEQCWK

## CCc1nc(-c2ccc(OCCCN3CCCN(C(=O)[C@@H](C)NC(=O)c4ccco4)CC3)cc2F)no1
  Ki: 4.1 nM

Reference: ChEMBL document CHEMBL1147425, “Structure-activity relationships of non-imidazole H(3) receptor ligands. Part 3: 5-Substituted 3-phenyl-1,2,4-oxadiazoles as potent antagonists” (Bioorg Med Chem Lett, 2004)
